Yeast mating assay 1: variants of the scFv Ab-14

Target: peptide PDVDLGDISGINAS, taken from heptad repeat 2 (HR2) of SARS-CoV-2 spike.

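The parent was found by panning a naive human phage display library on the peptide. Library AAYL49 holds single substitutions and randomly drawn double and triple substitutions in the CDRs. AlphaSeq pools MATa yeast showing the antibodies with MATalpha yeast showing the peptide. Pairs that bind mate more often; barcode pairs of the diploids are counted by sequencing. A regression on co-assayed BCL2-family reference pairs converts the normalised counts of each replicate to an apparent Kd. The assay was run in three technical replicates.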

Ab-14 is the parent antibody, in scFv form: VH, then three GGGGS repeats, then VL. The light chain is unchanged in all variants.
VH: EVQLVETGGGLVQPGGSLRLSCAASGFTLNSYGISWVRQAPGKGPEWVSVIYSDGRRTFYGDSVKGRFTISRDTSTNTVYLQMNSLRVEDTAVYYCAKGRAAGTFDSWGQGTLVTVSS
VL: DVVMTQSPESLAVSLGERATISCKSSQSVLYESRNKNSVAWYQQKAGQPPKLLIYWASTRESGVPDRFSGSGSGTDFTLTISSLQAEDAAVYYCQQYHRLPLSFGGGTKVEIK

The parent's heavy chain CDRs are GFTLNSYGIS, VIYSDGRRTFYGDSVK, GRAAGTFDS; each variant's own CDRs replace them letter for letter. Values are log10 of the apparent Kd in nM; lower means stronger binding. Replicates are averaged; those with no signal do not enter the mean. Where no diploid with the target was found in that replicate, the entry reads "nd": below detection, most likely a poor binder, though not proof of it. In this assay the parent's reference entry averaged 0.65; its copy inside this library read 4.11 (one replicate of three). Background: pairings of library AAYL49 with three empty control strains gave a value in 15% of cases (median 4.06, 5th percentile 2.83). Values in that range, when seen in few replicates, are hard to tell from nonspecific mating. The control count says in how many pairings with the empty strains this scFv gave a signal.

For GFTLNSIGIS / VCYTDGRRTFYGDSVK / GRAAGTFDS, the assay gave nd, nd, nd (controls 0 of 9).
For GFTLNSPGIS / VIYSDGRRTFYGDSVK / GRAAGTFPW, the assay gave nd, nd, nd (controls 2 of 9).
For GFTLNSYGIS / VIFIDGRRTIYGDSVK / GRAAGTFDS, the assay gave nd, nd, nd (controls 2 of 9).
For GFTLNSYGIS / VIYSDGRRTFYGDHCK / GRAAGTTDS, the assay gave 3.72, 3.65, 4.29 (mean 3.89; controls 0 of 9).
For GFTMNSYGIS / VPYSDCRRTFYGDSVK / GRAAGTFDS, the assay gave nd, 4.61, 4.88 (mean 4.74; controls 2 of 9).
For GDTLNSYGIS / VIYSDTRRTFYGDSVK / WRAAGTFDS, the assay gave nd, nd, nd (controls 0 of 9).
For TQTLNSYGIS / VIYSDGRRTFYGDSVK / GRAAGLFDS, the assay gave nd, nd, nd (controls 0 of 9).
For GFTLNPYGIS / VIYSDGRRTFYGDPVK / GRAASTFDS, the assay gave nd, nd, nd (controls 1 of 9).
For GFTLFSYGIS / VIYSDSRRTFYGDSVK / GPAAGTFDS, the assay gave nd, nd, 5.17 (controls 2 of 9).
For GFTLNSYGIS / VIYSDGRVYFYGDSVK / GRAAGTFDS, the assay gave 3.97, nd, nd (controls 0 of 9).
For SFTLNSYGIS / VIYSDGMRTFYGDSVK / GRAAGTDDS, the assay gave nd, nd, nd (controls 0 of 9).
For GFTLNSYGIS / VIYSDGRRTFYADSVK / GLAAGTFDK, the assay gave 0.48, 0.79, 0.52 (mean 0.60; controls 0 of 9).
For GFTENSYGIS / VIYSDGRTTTYGDSVK / GRAAGTFDS, the assay gave nd, 4.43, nd (controls 1 of 9).
For GFTLNSYLIN / VIYSDGRRTFYGDSVK / GRAAWTFDS, the assay gave 4.39, nd, nd (controls 2 of 9).
For GFILNSYGIS / VIYSDGRVTFYGDSVK / GRAADTFDS, the assay gave nd, nd, nd (controls 0 of 9).
For GFTLNVYGIS / VIYSDGYRTFYGDSVK / GRAAGTFDS, the assay gave 2.14, 2.61, 2.53 (mean 2.42; controls 1 of 9).
For GFTLNSYGIY / VIYSDGRRTFYGDSVK / GRAAGTCDM, the assay gave nd, nd, 4.70 (controls 1 of 9).
For AFTLNSYGIS / VIYSDIRRTFFGDSVK / GRAAGTFDS, the assay gave 3.20, nd, 4.99 (mean 4.10; controls 2 of 9).
For GFTLNSYGIS / VIYSHGCRTFRGDSVK / GRAAGTFDS, the assay gave 5.52, 3.87, nd (mean 4.69; controls 6 of 9).
For GFTLNSYGIS / VIYMDGNRTFYGDSVK / GRIAGTFDS, the assay gave nd, nd, nd (controls 3 of 9).
For GFALNKYGIM / VIYSDGRRTFYGDSVK / GRAAGTFDS, the assay gave nd, nd, nd (controls 0 of 9).
For GFTLNSYYIS / VIYSDGRRTFYGKSVK / GRYAGTFDS, the assay gave nd, nd, 4.26 (controls 5 of 9).
For GFTLCSYGIS / VIYSDGRRTFYGDSVK / LRAASTFDS, the assay gave 2.84, 2.31, 3.61 (mean 2.92; controls 0 of 9).
For GFTLNYWGIS / VIYSDGRVTFYGDSVK / GRAAGTFDS, the assay gave nd, nd, nd (controls 1 of 9).
For GFGLFSYGIS / VIYSDGRRTFYGDSVK / GRHAGTFDS, the assay gave 1.85, 1.67, 1.87 (mean 1.79; controls 0 of 9).
For GYTLNSYGIS / VIYSDGRNTFYQDSVK / GRAAGTFDS, the assay gave 5.15, nd, nd (controls 1 of 9).
For GFTLVSYGIS / VIYSDGRRTFYGDSVK / GRAAGTFFS, the assay gave 1.94, 1.69, 1.97 (mean 1.87; controls 2 of 9).
For GFTLNSYGIS / VIYSDGEDTFYGDSVK / GRALGTFDS, the assay gave 6.69, 3.48, 3.84 (mean 4.67; controls 7 of 9).
For GFTLNWYGIS / VIYSDGRRTFYGDSVK / GRAAGTFDS, the assay gave 1.52, 1.82, 2.28 (mean 1.88; controls 1 of 9).
For GFTLFSYGIS / VIYSDGRRTFYHDWVK / GRAAGTFDS, the assay gave nd, nd, nd (controls 0 of 9).
For GFTLMSYGIS / VIYSDGRQPFYGDSVK / GRAAGTFDS, the assay gave nd, 3.05, nd (controls 0 of 9).
For GFTLRSYGIS / VIYSDGRRTFYGDSVK / RRAAGTFDS, the assay gave 2.01, 1.56, 1.97 (mean 1.85; controls 0 of 9).

From the AlphaSeq antibody data of Engelhart et al. 2022 (doi:10.1038/s41597-022-01779-4), copy in the FLAb collection.